# Laboratory results from PubChem BioAssay AID687014 (The Scripps Research Institute Molecular Screening Center, 2013).
# This is a selection; strong and weak results do not stand in their true shares. Active and inactive are the calls of the source.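 How the source made its calls: active means activation above a cutoff set at the mean of all screened compounds plus 3 SD (cut at about 10% in these data); inactive means the rest.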
# System: Nuclear hormone receptor DAF-12 (Heterodera glycines), GAL4 fusion
# Assay: hgDAF-12 GAL4 fusion reporter activation – cell-based, luminescence, HEK293, UAS-luciferase, primary screen (AID 687014);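 further: 0% = DMSO wells and 100% = sodium butyrate wells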
# Details: HEK293 GAL4-hgDAF12 UAS-luciferase reporter, agonist luminescence; at 6.8 µM; hits give high values; normalized to butyrate control
row,SMILES,activation
1,CCC(=O)N(c1ccccc1)C1(COC)CCN(CCc2cccs2)CC1,inactive: 1.16%
2,CCC(=O)N(c1ccccc1)C1(COC)CCN(CCn2nnn(CC)c2=O)CC1,inactive: 1.36%
